Experimental data reported in publication PMC10150492.

The chains behind the UniProt entries cited, without tags or fusion partners.
UniProt Q9Y3Z3, whole entry T592V: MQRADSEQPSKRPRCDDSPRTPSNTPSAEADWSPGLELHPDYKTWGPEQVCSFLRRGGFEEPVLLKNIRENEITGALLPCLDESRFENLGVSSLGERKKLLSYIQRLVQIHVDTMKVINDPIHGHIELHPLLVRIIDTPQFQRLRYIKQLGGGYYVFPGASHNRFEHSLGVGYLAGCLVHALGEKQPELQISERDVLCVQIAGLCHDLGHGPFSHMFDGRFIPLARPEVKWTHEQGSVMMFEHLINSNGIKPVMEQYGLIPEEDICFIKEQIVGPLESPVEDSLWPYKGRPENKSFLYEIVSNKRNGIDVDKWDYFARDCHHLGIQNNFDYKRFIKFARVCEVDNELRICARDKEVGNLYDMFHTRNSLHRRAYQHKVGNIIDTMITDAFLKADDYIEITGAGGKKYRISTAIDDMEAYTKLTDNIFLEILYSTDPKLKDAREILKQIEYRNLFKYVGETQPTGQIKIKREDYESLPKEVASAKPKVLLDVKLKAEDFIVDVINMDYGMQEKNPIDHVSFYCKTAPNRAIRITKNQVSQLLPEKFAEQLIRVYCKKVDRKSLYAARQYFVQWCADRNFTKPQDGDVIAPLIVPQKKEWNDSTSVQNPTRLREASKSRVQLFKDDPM
UniProt Q9Y3Z3, whole entry T592D: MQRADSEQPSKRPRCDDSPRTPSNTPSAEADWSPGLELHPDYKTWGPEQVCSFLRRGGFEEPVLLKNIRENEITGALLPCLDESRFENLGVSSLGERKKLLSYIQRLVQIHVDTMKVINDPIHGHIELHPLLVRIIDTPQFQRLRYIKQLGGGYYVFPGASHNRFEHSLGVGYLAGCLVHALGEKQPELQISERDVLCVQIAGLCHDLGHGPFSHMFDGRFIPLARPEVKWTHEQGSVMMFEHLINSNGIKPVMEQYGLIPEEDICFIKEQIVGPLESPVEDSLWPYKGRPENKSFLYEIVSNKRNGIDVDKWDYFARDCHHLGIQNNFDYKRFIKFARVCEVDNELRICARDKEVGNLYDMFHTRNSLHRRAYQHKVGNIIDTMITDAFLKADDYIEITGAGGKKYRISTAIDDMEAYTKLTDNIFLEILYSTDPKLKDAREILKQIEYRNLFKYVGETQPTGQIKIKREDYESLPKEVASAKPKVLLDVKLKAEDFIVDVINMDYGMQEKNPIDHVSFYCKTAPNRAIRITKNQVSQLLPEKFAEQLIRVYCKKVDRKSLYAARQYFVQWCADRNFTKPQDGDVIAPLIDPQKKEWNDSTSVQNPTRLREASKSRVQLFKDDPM
UniProt Q9Y3Z3, whole entry T592L: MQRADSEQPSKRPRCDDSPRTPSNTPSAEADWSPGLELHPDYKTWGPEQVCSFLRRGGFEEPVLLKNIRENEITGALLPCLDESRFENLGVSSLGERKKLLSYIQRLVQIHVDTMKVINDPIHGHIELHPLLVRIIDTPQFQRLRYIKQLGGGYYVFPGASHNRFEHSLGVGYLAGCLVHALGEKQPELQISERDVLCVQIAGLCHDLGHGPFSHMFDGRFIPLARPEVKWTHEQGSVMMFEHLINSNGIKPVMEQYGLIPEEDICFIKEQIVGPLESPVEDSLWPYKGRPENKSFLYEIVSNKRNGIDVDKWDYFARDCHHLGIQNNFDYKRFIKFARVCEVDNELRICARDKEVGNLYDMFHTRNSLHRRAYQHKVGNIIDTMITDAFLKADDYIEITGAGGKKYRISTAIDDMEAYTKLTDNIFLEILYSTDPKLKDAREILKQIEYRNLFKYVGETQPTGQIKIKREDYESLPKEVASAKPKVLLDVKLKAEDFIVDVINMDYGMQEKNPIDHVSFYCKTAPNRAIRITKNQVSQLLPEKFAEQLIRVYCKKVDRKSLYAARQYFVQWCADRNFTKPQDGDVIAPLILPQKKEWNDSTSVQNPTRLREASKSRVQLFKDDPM
UniProt Q9Y3Z3, whole entry T592A: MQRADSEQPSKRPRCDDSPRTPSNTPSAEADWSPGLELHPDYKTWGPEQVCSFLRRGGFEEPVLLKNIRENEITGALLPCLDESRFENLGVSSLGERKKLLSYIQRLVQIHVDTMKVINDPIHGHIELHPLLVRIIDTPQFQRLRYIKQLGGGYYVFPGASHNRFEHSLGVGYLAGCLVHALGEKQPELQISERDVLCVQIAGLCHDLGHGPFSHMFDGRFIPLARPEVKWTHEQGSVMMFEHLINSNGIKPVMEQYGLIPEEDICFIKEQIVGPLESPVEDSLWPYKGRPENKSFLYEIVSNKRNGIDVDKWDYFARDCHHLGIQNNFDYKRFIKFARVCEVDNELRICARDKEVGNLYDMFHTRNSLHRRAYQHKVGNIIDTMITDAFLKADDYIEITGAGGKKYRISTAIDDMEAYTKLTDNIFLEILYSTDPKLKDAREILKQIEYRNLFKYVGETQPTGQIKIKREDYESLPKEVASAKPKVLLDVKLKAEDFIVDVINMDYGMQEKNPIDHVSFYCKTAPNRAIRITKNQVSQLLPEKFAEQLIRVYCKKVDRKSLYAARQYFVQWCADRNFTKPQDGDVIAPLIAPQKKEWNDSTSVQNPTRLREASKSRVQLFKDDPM
UniProt Q9Y3Z3, whole entry T592S: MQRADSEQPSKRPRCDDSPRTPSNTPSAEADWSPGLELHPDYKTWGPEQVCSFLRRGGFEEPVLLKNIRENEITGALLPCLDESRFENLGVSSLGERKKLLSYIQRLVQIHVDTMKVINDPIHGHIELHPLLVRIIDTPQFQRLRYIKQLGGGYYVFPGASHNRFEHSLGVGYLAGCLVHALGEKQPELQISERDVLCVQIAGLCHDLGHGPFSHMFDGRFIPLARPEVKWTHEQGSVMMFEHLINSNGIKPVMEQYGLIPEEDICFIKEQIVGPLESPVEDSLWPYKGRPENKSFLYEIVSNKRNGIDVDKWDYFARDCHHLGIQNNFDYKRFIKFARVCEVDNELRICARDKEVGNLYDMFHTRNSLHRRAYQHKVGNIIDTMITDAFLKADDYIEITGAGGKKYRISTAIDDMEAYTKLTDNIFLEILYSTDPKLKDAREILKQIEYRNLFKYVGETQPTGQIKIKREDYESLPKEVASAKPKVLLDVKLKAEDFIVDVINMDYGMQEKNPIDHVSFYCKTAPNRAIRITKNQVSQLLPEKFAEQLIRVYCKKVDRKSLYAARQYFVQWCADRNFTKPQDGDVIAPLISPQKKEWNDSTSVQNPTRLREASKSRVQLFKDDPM
UniProt Q9Y3Z3, whole entry T592I: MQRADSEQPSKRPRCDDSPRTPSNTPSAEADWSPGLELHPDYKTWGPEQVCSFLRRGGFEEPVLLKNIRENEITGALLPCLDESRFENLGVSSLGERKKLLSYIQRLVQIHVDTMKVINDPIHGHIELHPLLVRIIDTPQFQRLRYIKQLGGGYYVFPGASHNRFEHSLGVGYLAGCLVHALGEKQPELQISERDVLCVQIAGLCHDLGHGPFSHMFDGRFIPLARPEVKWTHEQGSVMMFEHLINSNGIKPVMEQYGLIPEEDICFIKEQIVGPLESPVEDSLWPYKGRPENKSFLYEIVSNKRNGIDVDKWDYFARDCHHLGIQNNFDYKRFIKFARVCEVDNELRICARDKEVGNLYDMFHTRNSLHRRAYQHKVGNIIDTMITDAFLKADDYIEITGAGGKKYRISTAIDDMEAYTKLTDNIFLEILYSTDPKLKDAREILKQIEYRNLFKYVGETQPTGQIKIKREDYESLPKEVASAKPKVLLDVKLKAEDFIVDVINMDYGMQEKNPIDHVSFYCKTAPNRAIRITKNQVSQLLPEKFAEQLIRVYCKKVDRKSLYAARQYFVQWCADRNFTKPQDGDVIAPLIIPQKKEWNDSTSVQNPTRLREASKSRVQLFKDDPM
UniProt Q9Y3Z3, whole entry T592K: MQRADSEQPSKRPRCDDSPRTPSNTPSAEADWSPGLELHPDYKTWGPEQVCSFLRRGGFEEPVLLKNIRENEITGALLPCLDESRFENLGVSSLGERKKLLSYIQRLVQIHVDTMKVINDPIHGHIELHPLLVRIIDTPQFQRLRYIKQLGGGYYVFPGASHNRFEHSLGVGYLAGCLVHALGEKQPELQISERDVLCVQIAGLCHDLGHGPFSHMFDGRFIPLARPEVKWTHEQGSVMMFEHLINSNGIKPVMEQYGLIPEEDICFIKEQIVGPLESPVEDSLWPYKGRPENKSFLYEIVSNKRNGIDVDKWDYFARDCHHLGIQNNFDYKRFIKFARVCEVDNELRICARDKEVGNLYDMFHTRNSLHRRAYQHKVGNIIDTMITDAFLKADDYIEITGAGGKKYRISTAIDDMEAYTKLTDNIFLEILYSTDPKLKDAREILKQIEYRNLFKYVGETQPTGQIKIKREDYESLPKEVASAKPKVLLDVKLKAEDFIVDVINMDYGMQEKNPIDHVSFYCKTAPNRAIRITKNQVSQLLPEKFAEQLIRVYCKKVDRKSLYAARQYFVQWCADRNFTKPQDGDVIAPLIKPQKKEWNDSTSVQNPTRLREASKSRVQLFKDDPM
UniProt Q9Y3Z3, whole entry T592C: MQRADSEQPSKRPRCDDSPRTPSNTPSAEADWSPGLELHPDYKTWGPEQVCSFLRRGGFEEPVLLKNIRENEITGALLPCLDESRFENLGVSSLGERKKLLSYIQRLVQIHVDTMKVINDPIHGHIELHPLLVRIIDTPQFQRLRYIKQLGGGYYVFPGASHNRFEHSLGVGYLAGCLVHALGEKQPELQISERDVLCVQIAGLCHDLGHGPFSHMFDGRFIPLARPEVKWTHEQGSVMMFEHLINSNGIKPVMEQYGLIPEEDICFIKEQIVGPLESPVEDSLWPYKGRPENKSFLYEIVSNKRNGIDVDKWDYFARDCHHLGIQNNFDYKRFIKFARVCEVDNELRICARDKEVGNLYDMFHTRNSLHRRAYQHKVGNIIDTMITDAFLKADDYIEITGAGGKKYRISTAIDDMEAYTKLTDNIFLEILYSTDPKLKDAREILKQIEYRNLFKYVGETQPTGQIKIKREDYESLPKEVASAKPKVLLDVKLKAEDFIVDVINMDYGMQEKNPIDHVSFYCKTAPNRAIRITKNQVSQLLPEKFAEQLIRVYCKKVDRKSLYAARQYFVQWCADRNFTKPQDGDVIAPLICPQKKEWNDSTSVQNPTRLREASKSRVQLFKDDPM
UniProt Q9Y3Z3, whole entry T592E: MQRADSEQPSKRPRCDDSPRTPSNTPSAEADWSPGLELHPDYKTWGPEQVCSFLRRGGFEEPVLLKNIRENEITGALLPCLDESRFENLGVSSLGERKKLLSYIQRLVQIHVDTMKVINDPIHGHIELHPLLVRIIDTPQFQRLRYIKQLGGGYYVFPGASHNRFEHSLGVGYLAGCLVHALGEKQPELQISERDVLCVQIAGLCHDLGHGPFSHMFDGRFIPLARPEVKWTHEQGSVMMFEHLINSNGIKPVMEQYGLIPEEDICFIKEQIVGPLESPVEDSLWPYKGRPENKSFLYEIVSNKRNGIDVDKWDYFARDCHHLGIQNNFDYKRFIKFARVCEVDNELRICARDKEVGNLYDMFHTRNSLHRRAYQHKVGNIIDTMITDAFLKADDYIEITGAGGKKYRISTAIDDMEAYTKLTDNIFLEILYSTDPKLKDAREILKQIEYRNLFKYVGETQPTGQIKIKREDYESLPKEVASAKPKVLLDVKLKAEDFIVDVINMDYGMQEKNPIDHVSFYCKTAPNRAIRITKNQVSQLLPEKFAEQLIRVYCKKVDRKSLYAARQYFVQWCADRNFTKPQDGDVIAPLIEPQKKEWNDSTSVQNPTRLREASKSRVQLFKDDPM

Target: SAMHD1 1-626 (UniProt Q9Y3Z3)
Assay: SEC-MALLS tetramer stability time course
Conditions: reference: wild type; sites T592

Substance | other: tetramer decay rate kdec
SAMHD1 1-626 (from UniProt Q9Y3Z3) T592V | stronger; reference 7.02
SAMHD1 1-626 (from UniProt Q9Y3Z3) T592D | weaker; reference 7.02
SAMHD1 1-626 (from UniProt Q9Y3Z3) T592L | weaker; reference 7.02
SAMHD1 1-626 (from UniProt Q9Y3Z3) T592A | stronger; reference 7.02
SAMHD1 1-626 (from UniProt Q9Y3Z3) T592S | stronger; reference 7.02
SAMHD1 1-626 (from UniProt Q9Y3Z3) T592I | stronger; reference 7.02
SAMHD1 1-626 (from UniProt Q9Y3Z3) T592K | weaker; reference 7.02
SAMHD1 1-626 (from UniProt Q9Y3Z3) T592C | stronger; reference 7.02
SAMHD1 1-626 (from UniProt Q9Y3Z3) T592E | same; reference 7.02
